Biological target: T1, rat mGluR5 (allosteric MPEP site) (Rattus norvegicus, UniProt P31424)
T1 construct: expressed in transfected cells
Assay: [3H]methoxyPEPy radioligand binding assay, membranes of HEK293A cells stably expressing rat mGluR5
Settings: 2 nM [3H]methoxyPEPy, 60 min room temperature, read-out: Ki, displacement of [3H]methoxyPEPy binding
Procedure: FIG. 3. MPEP analogs inhibit the binding of [3H]methoxyPEPy to membranes from cells expressing mGluR5. Membranes prepared from rat mGluR5 HEK293a cells (10 μg/well) were incubated with radiolabeled MPEP analog [3H]methoxyPEPy (2 nM) in the presence of varying concentrations of MPEP analogs for 60 min at room temperature. Samples were filtered through glass fiber filters and washed extensively. Non-specific binding was estimated with 5 μM MPEP. Concentration response curves were generated from the means of three separate experiments. Error bars represent SEM.
The allosteric antagonist MPEP analog [3H]methoxyPEPy (Cosford et al., [3H]-methoxymethyl-MTEP and [3H]-methoxy-PEPy: potent and selective radioligands for the metabotropic glutamate subtype 5 (mGluR5) receptor. Bioorg Med Chem Lett 13:351-4, 2003) was used to evaluate the interaction of the test compounds with the allosteric MPEP site on mGluR5. Membranes were prepared from HEK293A cells stably expressing rat mGluR5. Compounds were diluted into assay buffer (50 mM Tris/0.9% NaCl, pH 7.4) to a 5× stock and 20 μL test compound added to each well of a 96 well assay plate. 60 μL aliquots of membranes diluted in assay buffer (10 μg/well) were added to each well. […] 30 μL scintillation fluid was added to each well and the membrane-bound radioactivity determined by scintillation counting (TopCount by Perkin-Elmer). […]

By UniProt entry, the sequences of proteins in these tests, tags left out. Residues count along the entry.
UniProt P31424, 21-1203: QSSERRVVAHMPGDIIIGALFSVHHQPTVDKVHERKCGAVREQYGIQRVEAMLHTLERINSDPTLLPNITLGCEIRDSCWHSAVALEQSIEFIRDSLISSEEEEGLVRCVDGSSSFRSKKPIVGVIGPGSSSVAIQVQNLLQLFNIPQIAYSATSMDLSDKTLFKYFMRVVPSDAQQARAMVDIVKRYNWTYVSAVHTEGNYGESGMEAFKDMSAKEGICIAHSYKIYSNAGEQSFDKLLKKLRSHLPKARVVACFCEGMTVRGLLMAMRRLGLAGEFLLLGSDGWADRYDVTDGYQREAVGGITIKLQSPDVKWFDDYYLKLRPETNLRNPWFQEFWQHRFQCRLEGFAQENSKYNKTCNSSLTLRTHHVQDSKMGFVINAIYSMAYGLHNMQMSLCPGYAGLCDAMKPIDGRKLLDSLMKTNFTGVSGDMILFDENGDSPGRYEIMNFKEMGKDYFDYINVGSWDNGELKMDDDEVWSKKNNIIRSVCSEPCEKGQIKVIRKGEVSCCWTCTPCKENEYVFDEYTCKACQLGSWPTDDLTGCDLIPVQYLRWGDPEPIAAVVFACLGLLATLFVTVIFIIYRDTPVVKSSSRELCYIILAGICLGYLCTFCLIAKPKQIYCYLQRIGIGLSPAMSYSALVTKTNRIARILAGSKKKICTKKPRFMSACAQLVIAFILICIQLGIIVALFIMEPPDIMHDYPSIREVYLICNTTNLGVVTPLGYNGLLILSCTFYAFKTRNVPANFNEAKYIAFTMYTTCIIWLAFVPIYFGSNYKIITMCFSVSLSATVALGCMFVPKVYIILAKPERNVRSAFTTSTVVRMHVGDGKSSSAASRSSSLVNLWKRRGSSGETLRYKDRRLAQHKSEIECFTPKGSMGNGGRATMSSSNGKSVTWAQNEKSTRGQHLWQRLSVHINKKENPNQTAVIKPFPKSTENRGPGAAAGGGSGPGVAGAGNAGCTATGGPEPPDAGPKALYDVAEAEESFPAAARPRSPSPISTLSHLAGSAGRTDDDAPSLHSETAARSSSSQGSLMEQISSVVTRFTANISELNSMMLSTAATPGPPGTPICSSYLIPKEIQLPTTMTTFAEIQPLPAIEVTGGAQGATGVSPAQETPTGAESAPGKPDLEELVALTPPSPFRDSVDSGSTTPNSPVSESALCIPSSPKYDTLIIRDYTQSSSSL

## Cc1cccc(C#Cc2ccccc2)n1 [MPEP, 2-methyl-6-(phenylethynyl)-pyridine, reference compound]
  Ki: 4.72 ± 1.5 nM
